The data set deals with C. elegans nematodes at the L1 stage. The experiment in a line: Nematicide efficacy of CED-4 peptides, 96-well incubation of C. elegans L1, viability by probe touch. Type of data set: in vivo, Caenorhabditis elegans. The note with it: three days, about 37° C. On the procedure:
Assays were performed using 96-well plates. C. elegans nematodes at the L1 stage (refer to FIG. 1) were incubated in each of the 96 wells for three days at about 37° C. at about 0.8 mg/ml peptide concentration for each tested CED-4 peptide. Each of the selected CED-4 peptides were diluted in distilled water to 0.8 mg/ml peptide concentration. Nematodes—numbering between two nematodes and four nematodes—averaging about three nematodes were incubated in 100 μl of CED-4 peptide solution at about 0.8 mg/ml concentration in each well. After a three-day incubation period, the exposed C. elegans nematodes were checked for viability under a dissecting microscope. […]
Each separate well containing nematodes was considered an independent trial experiment. A well in which all of the incubated nematodes were either clearly alive or clearly dead at the end of the incubation period was recorded as one successful experiment. A well in which some or all of the incubated nematodes could not clearly be determined as alive or dead at the end of the incubation period was recorded as one unsuccessful experiment. […]
Each separate well containing nematodes was considered an independent trial experiment. A well in which all of the incubated nematodes were either clearly alive or clearly dead at the end of the incubation period was recorded as one successful experiment. […]

For “bovine serum albumin [BSA, reference compound]”, the “Percentage % Dead (mortality rate)” value (0.4 mg/ml) came out at 0% and the “Percentage % Dead (mortality rate)” value (0.8 mg/ml) was determined as 0%.

Source of the values: US9125413B1, “Nematicide composition comprising CED-4 peptide” (California State University Fresno, priority 2014, dated 2015).
